# Biological target: IDH1 R132H enzyme (Homo sapiens (Human), UniProt O75874, R132H)
# The chains behind the UniProt entries cited, without tags or fusion partners.
# UniProt O75874, whole entry R132H: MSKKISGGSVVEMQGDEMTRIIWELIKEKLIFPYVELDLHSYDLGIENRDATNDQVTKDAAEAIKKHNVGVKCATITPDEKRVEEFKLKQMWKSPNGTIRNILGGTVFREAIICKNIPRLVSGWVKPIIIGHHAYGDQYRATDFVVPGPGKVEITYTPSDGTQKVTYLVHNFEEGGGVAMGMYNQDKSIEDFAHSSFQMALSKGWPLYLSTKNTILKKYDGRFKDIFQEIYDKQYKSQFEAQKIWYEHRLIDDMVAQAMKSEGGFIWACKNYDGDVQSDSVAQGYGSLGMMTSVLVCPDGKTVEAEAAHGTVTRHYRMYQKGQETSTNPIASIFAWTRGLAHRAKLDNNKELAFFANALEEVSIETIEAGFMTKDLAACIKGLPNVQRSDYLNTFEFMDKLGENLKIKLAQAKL
# Test: Mutant IDH1 R132H biochemical assay
# Settings: NADPH consumption, luminescent readout; 1.5 nM enzyme, 250 μM α-KG, 1 μM NADPH, 32° C., 30 minutes; test range 0.002-10 μM
# Procedure: mIDH1 catalyzes the NADPH-dependent reduction of alpha-ketoglutarate (α-KG) to (2R)-2-hydroxyglutarate (2-HG). NADPH consumption was measured by luminescent readout.
# The biochemical reactions were performed at 32° C. in 384-well plates using a reaction volume of 41 μl and the following assay buffer conditions: 50 mM Tris pH 7.5, 100 mM NaCl, 20 mM MgCl2, 0.05% BSA, 0.01% Brij, 1 μM NADPH, and 250 μM α-KG. […] Test compounds were used in a concentration range between 0.002 and 10 μM. The final DMSO concentration was 2.4%.
# The reaction was incubated for 30 minutes, then 40 μl of detection mix (0.75 μg/ml Luciferase, 0.02 U/ml Oxidoreductase, 4 μg/ml FMN, 2 μl/ml Decanal/Ethanol, 50 mM Tris pH 7.5, 0.5% Glycerin, 0.01% Tween-20, 0.05% BSA) was added. Luminescence was measured on a luminescent reader (10 seconds measuring time, 1 second integration period, 30% sensitivity). The decrease in luminescence is proportional to mIDH1 activity. IC50 values are determined by interpolation from plots of relative luminescence versus inhibitor concentration.
row,Compound,IC50
1,"COC(=O)c1ccc2nc(Nc3ccc(OC(F)(F)F)cc3)n([C@H]3C[C@@H](C)CC(C)(C)C3)c2c1 (single isomer, unassigned; enantiomer a) [Example 2-1-1, methyl 2-{[4-(trifluoromethoxy)phenyl]amino}-1-[(cis)-3,3,5-trimethylcyclohexyl]-1H-benzimidazole-6-carboxylate, enantiomer A]",310 nM
2,"CCN(C)C(=O)c1ccc2nc(Nc3ccc(OC(F)(F)F)cc3)n([C@H]3C[C@@H](C)CC(C)(C)C3)c2c1 (single isomer, unassigned; enantiomer a) [Example 2-6-1, N-ethyl-N-methyl-2-{[4-(trifluoromethoxy)phenyl]amino}-1-[(cis)-3,3,5-trimethylcyclohexyl]-1H-benzimidazole-6-carboxamide, enantiomer A]",150 nM
3,"CCN(CC)C(=O)c1ccc2nc(Nc3ccc(OC(F)(F)F)cc3)n([C@H]3C[C@@H](C)CC(C)(C)C3)c2c1 (single isomer, unassigned; enantiomer a) [Example 2-7-1, N,N-diethyl-2-{[4-(trifluoromethoxy)phenyl]amino}-1-[(cis)-3,3,5-trimethylcyclohexyl]-1H-benzimidazole-6-carboxamide, enantiomer A]",240 nM
4,"C[C@@H]1C[C@H](n2c(Nc3ccc(OC(F)(F)F)cc3)nc3ccc(C(=O)N4CCOCC4)cc32)CC(C)(C)C1 (single isomer, unassigned; enantiomer a) [Example 2-16-1, morpholin-4-yl(2-{[4-(trifluoromethoxy)phenyl]amino}-1-[(cis)-3,3,5-trimethylcyclohexyl]-1H-benzimidazol-6-yl)methanone, enantiomer A]",160 nM
5,"C[C@@H]1C[C@H](n2c(Nc3ccc(OC(F)(F)F)cc3)nc3ccc(C(=O)N4CCCCC4)cc32)CC(C)(C)C1 (single isomer, unassigned; enantiomer a) [Example 2-17-1, piperidin-1-yl(2-{[4-(trifluoromethoxy)phenyl]amino}-1-[(cis)-3,3,5-trimethylcyclohexyl]-1H-benzimidazol-6-yl)methanone, enantiomer A]",1100 nM
6,"COC(=O)c1ccc2nc(Nc3ccc(OC(F)(F)F)cc3)n([C@H]3C[C@@H](C)CC(C)(C)C3)c2c1 (single isomer, unassigned; enantiomer b) [Example 2-1-2, methyl 2-{[4-(trifluoromethoxy)phenyl]amino}-1-[(cis)-3,3,5-trimethylcyclohexyl]-1H-benzimidazole-6-carboxylate, enantiomer B]",50 nM
7,"C[C@@H]1C[C@H](n2c(Nc3ccc(OC(F)(F)F)cc3)nc3ccc(C(=O)O)cc32)CC(C)(C)C1 (single isomer, unassigned; enantiomer b) [Example 2-3-2, 2-{[4-(trifluoromethoxy)phenyl]amino}-1-[(cis)-3,3,5-trimethylcyclohexyl]-1H-benzimidazole-6-carboxylic acid, enantiomer B]",3400 nM
8,"CCN(C)C(=O)c1ccc2nc(Nc3ccc(OC(F)(F)F)cc3)n([C@H]3C[C@@H](C)CC(C)(C)C3)c2c1 (single isomer, unassigned; enantiomer b) [Example 2-6-2, N-ethyl-N-methyl-2-{[4-(trifluoromethoxy)phenyl]amino}-1-[(cis)-3,3,5-trimethylcyclohexyl]-1H-benzimidazole-6-carboxamide, enantiomer B]",400 nM

# Other lines, results leading:
row,IC50,Compound
1,≥ 10000 nM,"C[C@@H]1C[C@H](n2c(Nc3ccc(OC(F)(F)F)cc3)nc3ccc(C(=O)NCC(=O)O)cc32)CC(C)(C)C1 (racemic) [Example 2-12, (±) N-[(2-{[4-(trifluoromethoxy)phenyl]amino}-1-[(cis)-3,3,5-trimethylcyclohexyl]-1H-benzimidazol-6-yl)carbonyl]glycine]"
2,580 nM,"C[C@@H]1C[C@H](n2c(Nc3ccc(OC(F)(F)F)cc3)nc3ccc(C(=O)N4CCCCC4)cc32)CC(C)(C)C1 (racemic) [Example 2-17, (±) piperidin-1-yl(2-{[4-(trifluoromethoxy)phenyl]amino}-1-[(cis)-3,3,5-trimethylcyclohexyl]-1H-benzimidazol-6-yl)methanone]"
3,5300 nM,"C[C@@H]1C[C@H](n2c(Nc3ccc(OC(F)(F)F)cc3)nc3ccc(C(=O)NC4CCS(=O)(=O)CC4)cc32)CC(C)(C)C1 (racemic) [Example 2-18, (±) N-(1,1-dioxidotetrahydro-2H-thiopyran-4-yl)-2-{[4-(trifluoromethoxy)phenyl]amino}-1-[(cis)-3,3,5-trimethylcyclohexyl]-1H-benzimidazole-6-carboxamide]"

# Source: US10138226B2, “Benzimidazol-2-amines as MIDH1 inhibitors” (Bayer Pharma Aktiengesellschaft, priority 2014, dated 2018)
